Earlier results, collected in article PMC3098207 (Malaria Journal, 2011).

Conditions: IV AS; ref Binh et al 16, Batty et al 17; cited from earlier work

C[C@H]1[C@H](OC(=O)CCC(=O)O)O[C@@H]2O[C@@]3(C)CC[C@H]4[C@H](C)CC[C@@H]1[C@@]24OO3 [AS, artesunate]
AS half-life estimates: less than ten minutes
